Measured values: ChEMBL document CHEMBL3297733, “Discovery and optimization of pyrrolo[1,2-a]pyrazinones leads to novel and selective inhibitors of PIM kinases” (Bioorg Med Chem, 2013)

Chains of the proteins cited; added tags and fusions are not shown. Lines headed by an entry give the natural chain unless they say otherwise; changes in a name come on top.
UniProt P29597: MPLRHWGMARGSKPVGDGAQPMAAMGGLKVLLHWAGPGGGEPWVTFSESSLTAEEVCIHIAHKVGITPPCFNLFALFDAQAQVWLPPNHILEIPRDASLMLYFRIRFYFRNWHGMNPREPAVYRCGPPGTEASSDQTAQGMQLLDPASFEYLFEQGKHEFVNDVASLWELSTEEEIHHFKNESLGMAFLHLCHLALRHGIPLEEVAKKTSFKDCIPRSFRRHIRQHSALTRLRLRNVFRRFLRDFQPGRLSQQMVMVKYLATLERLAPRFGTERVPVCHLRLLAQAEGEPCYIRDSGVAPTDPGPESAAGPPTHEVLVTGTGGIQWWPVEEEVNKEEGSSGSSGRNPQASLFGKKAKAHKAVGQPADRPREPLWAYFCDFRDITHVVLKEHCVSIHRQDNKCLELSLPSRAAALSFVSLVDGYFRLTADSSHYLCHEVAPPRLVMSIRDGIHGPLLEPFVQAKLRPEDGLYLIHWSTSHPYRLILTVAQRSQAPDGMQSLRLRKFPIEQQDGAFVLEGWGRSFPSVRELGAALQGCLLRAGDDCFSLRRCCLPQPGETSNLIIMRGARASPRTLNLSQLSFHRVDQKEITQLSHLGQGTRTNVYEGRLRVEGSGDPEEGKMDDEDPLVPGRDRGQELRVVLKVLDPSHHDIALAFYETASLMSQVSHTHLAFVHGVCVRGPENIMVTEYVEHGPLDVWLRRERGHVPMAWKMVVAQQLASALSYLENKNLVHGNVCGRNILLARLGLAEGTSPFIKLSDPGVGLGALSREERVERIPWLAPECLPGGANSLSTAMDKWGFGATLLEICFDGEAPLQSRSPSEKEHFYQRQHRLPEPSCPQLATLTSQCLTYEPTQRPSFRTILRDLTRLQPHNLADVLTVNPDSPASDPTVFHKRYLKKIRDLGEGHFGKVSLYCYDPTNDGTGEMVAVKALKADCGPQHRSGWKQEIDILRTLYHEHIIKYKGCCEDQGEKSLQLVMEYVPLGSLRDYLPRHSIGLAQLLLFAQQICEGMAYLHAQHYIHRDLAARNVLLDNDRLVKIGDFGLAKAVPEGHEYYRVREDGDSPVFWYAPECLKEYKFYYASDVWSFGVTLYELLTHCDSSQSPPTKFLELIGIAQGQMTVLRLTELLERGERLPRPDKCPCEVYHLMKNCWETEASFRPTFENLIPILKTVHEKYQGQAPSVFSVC
UniProt P04629: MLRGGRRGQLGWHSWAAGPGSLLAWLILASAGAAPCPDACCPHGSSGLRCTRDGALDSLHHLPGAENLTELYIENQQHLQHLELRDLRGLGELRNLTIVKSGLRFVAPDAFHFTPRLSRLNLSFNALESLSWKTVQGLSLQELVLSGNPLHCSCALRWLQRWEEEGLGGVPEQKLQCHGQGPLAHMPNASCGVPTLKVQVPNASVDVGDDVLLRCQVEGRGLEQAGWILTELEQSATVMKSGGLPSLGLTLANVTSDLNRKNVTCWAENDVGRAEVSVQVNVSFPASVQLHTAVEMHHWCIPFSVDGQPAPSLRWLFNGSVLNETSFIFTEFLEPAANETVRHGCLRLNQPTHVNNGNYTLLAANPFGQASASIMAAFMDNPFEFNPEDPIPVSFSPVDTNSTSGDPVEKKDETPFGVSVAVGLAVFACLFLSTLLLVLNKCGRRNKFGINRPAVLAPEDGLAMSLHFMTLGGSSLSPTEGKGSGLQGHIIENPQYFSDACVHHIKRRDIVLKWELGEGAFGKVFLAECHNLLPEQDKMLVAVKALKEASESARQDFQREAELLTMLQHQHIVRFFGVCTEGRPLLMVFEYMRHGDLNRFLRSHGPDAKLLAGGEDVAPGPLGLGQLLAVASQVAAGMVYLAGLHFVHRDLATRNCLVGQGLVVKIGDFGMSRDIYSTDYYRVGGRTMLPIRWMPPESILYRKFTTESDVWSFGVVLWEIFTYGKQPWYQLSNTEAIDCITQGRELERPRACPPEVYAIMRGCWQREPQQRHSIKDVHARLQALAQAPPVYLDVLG
UniProt Q16539, whole entry: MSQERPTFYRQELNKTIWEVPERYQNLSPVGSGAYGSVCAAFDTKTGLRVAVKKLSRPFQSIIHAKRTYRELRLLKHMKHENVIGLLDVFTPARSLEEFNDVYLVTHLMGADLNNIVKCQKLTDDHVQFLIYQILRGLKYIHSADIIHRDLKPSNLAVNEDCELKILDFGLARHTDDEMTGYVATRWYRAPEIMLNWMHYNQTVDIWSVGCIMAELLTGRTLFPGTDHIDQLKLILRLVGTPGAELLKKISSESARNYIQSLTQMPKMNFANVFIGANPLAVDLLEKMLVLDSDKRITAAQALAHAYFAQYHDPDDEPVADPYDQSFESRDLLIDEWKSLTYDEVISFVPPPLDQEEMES
UniProt Q9P289: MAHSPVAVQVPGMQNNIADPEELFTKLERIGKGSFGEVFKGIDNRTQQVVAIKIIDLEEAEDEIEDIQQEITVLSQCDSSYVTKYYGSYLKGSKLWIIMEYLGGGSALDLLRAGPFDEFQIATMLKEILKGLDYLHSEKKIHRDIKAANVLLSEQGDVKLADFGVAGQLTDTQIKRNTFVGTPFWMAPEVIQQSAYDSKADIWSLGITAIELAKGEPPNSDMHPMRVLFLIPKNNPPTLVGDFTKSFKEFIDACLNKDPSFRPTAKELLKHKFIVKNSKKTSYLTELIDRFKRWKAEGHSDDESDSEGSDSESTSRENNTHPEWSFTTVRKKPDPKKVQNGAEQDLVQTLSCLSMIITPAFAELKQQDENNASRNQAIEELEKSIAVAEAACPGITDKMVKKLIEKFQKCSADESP
UniProt O60674: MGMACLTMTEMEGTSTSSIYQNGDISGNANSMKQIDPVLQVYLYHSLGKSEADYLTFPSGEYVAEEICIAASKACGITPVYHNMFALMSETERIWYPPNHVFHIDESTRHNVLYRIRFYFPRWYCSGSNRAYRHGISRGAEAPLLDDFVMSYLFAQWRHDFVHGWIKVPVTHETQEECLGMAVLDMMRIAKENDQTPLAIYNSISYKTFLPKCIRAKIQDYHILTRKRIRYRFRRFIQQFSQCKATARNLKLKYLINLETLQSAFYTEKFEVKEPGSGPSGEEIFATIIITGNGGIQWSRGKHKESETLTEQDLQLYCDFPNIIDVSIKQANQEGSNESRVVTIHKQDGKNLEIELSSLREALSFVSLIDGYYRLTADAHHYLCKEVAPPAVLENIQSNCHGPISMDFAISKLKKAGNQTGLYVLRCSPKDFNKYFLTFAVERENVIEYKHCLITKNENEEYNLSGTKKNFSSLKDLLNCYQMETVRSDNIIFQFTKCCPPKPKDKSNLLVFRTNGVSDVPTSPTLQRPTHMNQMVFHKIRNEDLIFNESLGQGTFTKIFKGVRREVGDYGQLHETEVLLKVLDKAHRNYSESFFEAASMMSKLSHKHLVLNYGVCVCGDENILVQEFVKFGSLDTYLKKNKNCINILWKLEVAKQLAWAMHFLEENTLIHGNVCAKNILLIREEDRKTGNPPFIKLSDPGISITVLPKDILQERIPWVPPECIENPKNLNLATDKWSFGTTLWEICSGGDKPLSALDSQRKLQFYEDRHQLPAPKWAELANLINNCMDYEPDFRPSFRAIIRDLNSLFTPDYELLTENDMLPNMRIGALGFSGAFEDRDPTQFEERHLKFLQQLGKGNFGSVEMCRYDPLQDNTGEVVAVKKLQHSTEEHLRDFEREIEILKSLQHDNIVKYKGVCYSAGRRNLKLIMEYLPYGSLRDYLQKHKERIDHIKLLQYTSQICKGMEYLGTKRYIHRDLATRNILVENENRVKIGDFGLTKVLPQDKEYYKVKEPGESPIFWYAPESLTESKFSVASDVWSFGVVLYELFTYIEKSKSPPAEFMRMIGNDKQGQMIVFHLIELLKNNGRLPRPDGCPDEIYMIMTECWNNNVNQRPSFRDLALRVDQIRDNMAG
UniProt P29317, whole entry: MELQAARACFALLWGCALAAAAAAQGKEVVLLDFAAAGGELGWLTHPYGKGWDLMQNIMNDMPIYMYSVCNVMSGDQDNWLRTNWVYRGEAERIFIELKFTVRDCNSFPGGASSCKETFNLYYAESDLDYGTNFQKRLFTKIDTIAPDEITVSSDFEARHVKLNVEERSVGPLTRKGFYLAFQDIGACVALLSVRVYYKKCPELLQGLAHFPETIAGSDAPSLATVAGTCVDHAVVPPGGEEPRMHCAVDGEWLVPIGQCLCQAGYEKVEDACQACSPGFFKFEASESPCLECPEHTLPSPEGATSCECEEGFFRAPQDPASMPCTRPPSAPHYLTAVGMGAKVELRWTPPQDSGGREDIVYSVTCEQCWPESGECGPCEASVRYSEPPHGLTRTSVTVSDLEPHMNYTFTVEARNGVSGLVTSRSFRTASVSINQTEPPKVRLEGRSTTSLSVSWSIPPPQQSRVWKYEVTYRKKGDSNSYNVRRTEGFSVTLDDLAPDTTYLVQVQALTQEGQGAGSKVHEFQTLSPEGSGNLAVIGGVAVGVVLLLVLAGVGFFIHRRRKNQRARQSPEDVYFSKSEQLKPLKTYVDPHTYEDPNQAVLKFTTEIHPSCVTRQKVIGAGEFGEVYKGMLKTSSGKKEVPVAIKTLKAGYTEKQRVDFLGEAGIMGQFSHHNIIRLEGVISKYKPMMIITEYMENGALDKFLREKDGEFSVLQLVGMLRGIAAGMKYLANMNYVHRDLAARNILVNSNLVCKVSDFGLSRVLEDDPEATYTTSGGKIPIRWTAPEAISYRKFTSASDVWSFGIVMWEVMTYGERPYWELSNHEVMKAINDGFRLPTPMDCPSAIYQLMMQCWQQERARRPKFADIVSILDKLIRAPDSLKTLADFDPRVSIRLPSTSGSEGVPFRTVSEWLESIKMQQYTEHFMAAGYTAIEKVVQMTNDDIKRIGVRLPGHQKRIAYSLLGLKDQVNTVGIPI
UniProt Q96GD4, whole entry: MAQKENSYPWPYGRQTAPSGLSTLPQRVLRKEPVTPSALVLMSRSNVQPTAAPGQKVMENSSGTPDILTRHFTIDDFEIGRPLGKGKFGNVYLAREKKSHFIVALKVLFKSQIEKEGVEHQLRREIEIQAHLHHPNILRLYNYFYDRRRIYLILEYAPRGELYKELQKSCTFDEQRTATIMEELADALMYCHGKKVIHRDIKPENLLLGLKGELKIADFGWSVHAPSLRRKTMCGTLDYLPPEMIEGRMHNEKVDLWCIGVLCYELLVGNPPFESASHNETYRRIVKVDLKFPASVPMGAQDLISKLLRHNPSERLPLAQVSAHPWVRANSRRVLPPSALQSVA
UniProt O43683: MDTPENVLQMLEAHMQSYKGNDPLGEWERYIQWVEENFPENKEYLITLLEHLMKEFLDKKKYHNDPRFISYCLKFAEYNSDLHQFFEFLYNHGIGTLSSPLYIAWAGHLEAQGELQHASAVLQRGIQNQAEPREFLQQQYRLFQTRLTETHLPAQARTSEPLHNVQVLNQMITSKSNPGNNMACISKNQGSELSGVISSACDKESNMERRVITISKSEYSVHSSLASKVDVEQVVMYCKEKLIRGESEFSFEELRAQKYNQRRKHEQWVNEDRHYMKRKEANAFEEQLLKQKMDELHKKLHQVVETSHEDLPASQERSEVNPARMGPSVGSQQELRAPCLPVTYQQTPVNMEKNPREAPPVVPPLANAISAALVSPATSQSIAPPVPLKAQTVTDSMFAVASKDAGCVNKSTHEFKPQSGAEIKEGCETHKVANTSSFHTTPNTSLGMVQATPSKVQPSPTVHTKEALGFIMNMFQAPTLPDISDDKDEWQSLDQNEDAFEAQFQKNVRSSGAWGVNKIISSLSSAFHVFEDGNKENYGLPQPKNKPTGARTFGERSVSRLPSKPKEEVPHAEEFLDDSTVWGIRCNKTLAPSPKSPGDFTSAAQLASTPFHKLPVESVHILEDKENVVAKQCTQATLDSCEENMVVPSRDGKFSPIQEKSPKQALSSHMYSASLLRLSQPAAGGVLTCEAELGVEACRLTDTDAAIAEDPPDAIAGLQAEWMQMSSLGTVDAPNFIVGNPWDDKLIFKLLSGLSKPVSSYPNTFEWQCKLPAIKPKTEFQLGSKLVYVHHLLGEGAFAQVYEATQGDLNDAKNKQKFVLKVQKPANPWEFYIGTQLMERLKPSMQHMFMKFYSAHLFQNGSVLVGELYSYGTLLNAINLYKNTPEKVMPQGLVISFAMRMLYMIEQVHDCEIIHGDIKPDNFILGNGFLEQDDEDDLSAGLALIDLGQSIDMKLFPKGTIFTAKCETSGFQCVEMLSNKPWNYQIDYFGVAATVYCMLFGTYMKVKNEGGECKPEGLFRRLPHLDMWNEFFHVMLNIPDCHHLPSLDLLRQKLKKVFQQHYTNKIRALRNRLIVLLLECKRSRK

Key:
[1] = target: Non-receptor tyrosine-protein kinase TYK2 (Homo sapiens, UniProt P29597); assay: Inhibition of TYK2 (unknown origin)
[2] = target: Vascular endothelial growth factor receptor 2 (Homo sapiens, UniProt P35968); assay: Inhibition of VEGFR2 (unknown origin)
[3] = target: High affinity nerve growth factor receptor (Homo sapiens, UniProt P04629); assay: Inhibition of TRKA (unknown origin)
[4] = target: Protein kinase C beta type (Homo sapiens, UniProt P05771); assay: Inhibition of PKC-beta (unknown origin)
[5] = target: Mitogen-activated protein kinase 14 (Homo sapiens, UniProt Q16539); assay: Inhibition of P38alpha (unknown origin)
[6] = target: Serine/threonine-protein kinase 26 (Homo sapiens, UniProt Q9P289); assay: Inhibition of MST4 (unknown origin)
[7] = target: T1, Serine/threonine-protein kinase Nek6 (Homo sapiens, UniProt Q9HC98); assay: Inhibition of NEK6 (unknown origin)
T1 sequence (Q9HC98 whole entry): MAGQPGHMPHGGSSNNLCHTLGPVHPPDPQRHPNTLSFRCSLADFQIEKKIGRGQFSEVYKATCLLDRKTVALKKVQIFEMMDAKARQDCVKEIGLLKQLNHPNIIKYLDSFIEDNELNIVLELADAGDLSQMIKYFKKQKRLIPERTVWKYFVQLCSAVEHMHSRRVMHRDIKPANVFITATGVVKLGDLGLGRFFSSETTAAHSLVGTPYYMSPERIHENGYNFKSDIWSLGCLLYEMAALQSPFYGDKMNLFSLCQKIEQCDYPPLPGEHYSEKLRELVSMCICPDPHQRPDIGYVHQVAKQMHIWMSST

[8] = target: T2, Tyrosine-protein kinase JAK3 (Homo sapiens, UniProt P52333); assay: Inhibition of JAK3 (unknown origin)
T2 sequence (P52333 whole entry): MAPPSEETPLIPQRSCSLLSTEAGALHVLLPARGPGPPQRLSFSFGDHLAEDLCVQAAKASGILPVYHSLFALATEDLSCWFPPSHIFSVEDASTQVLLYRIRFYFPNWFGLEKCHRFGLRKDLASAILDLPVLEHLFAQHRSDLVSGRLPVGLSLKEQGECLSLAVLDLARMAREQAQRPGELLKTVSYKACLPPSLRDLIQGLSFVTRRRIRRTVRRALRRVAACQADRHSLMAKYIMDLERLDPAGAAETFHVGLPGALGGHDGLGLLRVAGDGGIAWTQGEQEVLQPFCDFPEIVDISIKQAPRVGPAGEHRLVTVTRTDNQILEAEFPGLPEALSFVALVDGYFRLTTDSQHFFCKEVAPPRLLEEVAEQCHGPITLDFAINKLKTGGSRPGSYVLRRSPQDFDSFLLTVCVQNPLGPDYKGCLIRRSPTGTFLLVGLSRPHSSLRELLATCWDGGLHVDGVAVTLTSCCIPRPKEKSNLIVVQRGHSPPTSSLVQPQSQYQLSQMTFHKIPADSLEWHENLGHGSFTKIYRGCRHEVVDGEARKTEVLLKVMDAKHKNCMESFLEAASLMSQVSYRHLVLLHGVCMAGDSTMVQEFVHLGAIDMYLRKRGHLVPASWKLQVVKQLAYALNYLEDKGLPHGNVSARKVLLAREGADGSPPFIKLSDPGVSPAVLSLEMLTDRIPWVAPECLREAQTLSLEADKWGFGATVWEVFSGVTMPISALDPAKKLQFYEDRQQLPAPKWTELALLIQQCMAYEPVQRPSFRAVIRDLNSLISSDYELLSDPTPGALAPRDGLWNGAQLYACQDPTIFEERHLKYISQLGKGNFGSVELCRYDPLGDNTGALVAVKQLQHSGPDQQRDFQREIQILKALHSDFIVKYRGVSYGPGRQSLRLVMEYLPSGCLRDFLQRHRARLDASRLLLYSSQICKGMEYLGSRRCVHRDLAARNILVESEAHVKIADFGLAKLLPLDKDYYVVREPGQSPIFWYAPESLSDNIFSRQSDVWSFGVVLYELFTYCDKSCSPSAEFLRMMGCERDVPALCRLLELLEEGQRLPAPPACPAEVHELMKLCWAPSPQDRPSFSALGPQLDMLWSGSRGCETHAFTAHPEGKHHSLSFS

[9] = target: Tyrosine-protein kinase JAK2 (Homo sapiens, UniProt O60674); assay: Inhibition of JAK2 (unknown origin)
Ephrin type-A receptor 2 = Ephrin type-A receptor 2 (Homo sapiens, UniProt P29317); assay: Inhibition of EphA2 (unknown origin)
[10] = target: T3, Eukaryotic elongation factor 2 kinase (Homo sapiens, UniProt O00418); assay: Inhibition of EEF2K (unknown origin)
T3 sequence (O00418 whole entry): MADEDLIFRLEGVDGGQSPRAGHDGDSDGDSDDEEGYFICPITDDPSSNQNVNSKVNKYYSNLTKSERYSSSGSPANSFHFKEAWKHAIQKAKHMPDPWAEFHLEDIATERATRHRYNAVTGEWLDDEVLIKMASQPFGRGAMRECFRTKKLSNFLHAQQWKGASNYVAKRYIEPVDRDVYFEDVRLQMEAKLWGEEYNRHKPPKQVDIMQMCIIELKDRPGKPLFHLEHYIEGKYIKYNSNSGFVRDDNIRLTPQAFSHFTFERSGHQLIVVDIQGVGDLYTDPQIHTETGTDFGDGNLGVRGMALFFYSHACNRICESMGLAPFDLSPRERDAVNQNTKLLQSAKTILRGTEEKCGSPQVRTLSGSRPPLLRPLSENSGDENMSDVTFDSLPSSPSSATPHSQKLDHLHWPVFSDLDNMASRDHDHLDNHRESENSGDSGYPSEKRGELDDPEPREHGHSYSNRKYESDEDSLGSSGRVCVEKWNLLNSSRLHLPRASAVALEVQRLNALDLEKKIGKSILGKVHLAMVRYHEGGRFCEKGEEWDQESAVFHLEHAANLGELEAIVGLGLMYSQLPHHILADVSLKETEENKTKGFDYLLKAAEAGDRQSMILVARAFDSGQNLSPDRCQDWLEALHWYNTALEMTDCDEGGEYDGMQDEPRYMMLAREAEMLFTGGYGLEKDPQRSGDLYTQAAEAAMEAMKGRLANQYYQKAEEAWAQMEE

Aurora kinase B = Aurora kinase B (Homo sapiens, UniProt Q96GD4); assay: Inhibition of aurora kinase 2 (unknown origin)
[11] = target: Mitotic checkpoint serine/threonine-protein kinase BUB1 (Homo sapiens, UniProt O43683); assay: Inhibition of BUB1 (unknown origin)
Aurora kinase A = target: T4, Aurora kinase A (Homo sapiens, UniProt O14965); assay: Inhibition of aurora kinase 1 (unknown origin)
T4 sequence (O14965 whole entry): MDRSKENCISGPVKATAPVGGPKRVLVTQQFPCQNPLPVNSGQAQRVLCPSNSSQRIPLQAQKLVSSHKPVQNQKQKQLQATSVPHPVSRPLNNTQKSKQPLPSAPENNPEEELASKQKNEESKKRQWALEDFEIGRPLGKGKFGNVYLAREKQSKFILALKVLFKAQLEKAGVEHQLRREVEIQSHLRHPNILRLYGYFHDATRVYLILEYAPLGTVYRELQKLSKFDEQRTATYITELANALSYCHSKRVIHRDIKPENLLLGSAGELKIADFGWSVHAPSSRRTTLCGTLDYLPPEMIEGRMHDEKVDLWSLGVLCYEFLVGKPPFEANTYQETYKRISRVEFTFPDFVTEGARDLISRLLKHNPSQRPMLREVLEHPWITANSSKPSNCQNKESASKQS

IC50 [1]: > 10 µM
IC50 [2]: > 10 µM
IC50 [3]: > 10 µM
IC50 [4]: > 10 µM
IC50 [5]: > 10 µM
IC50 [6]: > 10 µM
IC50 [7]: > 10 µM
IC50 [8]: > 10 µM
IC50 [9]: > 10 µM
IC50 (Ephrin type-A receptor 2): > 10 µM
IC50 [10]: > 10 µM
IC50 (Aurora kinase B): > 10 µM
IC50 [11]: > 10 µM
IC50 (Aurora kinase A): > 10 µM
SMILES: CC(C)(C)CNC(=O)CC1CNC(=O)c2cc(-c3ccsc3)cn21 (racemic)
